Data on two substances can be found in patent US6355823B1 (Board of Regents, The University of Texas System, priority 1999, dated 2002).

Sequences of proteins named here, by UniProt entry; tags and fusion partners are left off. A change or cut given only in a name is not applied to a line headed by its entry.
UniProt G1SIP4: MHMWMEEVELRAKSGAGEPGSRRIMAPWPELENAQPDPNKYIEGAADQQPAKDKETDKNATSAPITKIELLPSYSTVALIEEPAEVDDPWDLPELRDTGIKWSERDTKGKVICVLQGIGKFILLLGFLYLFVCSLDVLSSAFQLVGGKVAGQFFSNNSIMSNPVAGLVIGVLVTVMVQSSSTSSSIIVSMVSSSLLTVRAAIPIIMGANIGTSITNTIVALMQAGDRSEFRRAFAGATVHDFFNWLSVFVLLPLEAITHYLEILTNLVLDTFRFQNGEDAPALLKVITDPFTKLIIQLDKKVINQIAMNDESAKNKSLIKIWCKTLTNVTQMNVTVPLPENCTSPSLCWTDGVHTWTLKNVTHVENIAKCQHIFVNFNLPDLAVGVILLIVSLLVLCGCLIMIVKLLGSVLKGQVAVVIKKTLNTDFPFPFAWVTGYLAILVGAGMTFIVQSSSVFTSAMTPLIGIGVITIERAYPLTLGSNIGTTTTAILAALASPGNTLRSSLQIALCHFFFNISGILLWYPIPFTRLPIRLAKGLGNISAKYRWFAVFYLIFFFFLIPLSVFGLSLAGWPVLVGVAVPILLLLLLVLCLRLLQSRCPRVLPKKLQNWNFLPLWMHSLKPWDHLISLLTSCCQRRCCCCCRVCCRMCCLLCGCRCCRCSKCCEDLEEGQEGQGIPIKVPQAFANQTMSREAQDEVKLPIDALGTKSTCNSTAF

Assay [1] addresses intestinal brush border membrane alkaline phosphatase (Oryctolagus cuniculus, UniProt G1SXE4). Briefly: Inhibition of alkaline phosphatase hydrolysis of 4-nitrophenylphosphate. Type of assay: biochemical.
Assay [2] addresses intestinal BBM Na/phosphate co-transporter (Oryctolagus cuniculus, UniProt G1SIP4). Briefly: [3H]2′-PP binding to Ca-BBM protein. The following applies: read-out: concentration inhibiting 50% of Na-dependent 2′-PP bound to Ca-BBM; n=3.

In the case of “1-[2,6-dihydroxy-4-(phosphonoimino)phenyl]-3-4-hydroxyphenyl)-1-propanone”, the “substrate of alkaline / apical membrane phosphatase” value in assay [1] was “not a substrate”.

Difluorophosphate: in assay [2], the IC50 turned out to be 48 µM.
